ChEMBL document CHEMBL1130527, “Adenosine A2A antagonists with potent anti-cataleptic activity” (Bioorg Med Chem Lett, 1997)

The chains behind the UniProt entries cited, without tags or fusion partners.
UniProt P30543, whole entry: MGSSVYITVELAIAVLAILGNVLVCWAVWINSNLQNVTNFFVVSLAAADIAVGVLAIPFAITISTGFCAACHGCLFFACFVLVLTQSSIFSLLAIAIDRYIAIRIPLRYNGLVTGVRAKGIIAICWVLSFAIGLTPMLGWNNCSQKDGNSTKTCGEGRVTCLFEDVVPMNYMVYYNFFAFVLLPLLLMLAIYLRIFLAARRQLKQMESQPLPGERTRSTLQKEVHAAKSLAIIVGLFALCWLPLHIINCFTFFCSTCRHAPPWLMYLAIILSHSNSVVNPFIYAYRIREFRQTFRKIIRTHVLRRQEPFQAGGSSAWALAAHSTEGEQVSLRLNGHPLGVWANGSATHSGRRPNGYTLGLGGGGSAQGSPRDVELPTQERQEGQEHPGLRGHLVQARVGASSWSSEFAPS

Key:
Adenosine receptor A2a [1] = molecular target: T1, Adenosine receptor A2a (Rattus norvegicus, UniProt P30543)
Adenosine receptor A2a [2] = molecular target: T1, Adenosine receptor A2a; remark: listed apart in the source

CCn1c(=O)c2c(nc(/C=C/c3cc(OC)c(OC)c(OC)c3)n2C)n(CC)c1=O
Ki (Adenosine receptor A2a [1]): 2.4 nM | Ki (Adenosine receptor A2a [2]): 6.2 nM
